Assay results published in patent publication EP4834897A1, “COMPOUNDS WITH TWO AZAHETEROCYCLES SUBSTITUTED ISOINDOLINONE SKELETON AND USES THEREOF” (dated 2026).

Amino acid sequences for entries named in this document (tags omitted).
UniProt Q96SW2, whole entry: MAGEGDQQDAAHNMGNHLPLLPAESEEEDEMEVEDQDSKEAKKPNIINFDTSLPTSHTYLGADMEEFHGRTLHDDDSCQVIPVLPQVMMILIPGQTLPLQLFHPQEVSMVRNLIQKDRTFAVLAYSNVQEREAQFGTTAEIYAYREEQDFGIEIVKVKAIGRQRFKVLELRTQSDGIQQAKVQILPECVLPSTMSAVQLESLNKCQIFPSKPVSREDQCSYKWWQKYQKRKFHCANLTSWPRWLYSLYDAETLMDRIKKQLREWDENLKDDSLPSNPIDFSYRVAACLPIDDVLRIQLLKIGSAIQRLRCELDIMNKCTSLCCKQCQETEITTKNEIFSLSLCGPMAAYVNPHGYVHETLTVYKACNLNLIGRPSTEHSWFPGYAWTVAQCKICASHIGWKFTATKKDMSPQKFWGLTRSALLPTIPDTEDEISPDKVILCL
UniProt P48729, whole entry: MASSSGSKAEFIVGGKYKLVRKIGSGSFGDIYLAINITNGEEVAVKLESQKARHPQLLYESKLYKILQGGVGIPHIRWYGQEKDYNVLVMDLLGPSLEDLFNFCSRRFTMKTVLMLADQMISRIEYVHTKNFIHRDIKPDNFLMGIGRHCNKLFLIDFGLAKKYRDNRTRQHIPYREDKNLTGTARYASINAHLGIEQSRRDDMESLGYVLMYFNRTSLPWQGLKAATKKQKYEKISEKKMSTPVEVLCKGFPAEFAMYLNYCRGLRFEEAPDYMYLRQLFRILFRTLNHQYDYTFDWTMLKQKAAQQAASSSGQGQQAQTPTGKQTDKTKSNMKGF
UniProt P15170, whole entry: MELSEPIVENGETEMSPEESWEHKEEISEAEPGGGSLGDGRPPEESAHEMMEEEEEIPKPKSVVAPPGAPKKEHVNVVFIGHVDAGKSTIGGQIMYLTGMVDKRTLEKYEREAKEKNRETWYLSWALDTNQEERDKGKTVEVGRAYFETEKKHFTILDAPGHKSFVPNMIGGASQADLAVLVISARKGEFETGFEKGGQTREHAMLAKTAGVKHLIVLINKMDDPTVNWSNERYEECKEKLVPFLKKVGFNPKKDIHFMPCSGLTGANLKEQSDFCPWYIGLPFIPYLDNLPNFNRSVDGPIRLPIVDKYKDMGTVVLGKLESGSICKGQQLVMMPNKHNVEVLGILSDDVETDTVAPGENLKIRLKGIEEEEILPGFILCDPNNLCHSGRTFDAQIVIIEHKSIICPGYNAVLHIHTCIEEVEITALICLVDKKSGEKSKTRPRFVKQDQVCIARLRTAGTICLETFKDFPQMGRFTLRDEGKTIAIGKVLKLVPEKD
UniProt Q13422, whole entry: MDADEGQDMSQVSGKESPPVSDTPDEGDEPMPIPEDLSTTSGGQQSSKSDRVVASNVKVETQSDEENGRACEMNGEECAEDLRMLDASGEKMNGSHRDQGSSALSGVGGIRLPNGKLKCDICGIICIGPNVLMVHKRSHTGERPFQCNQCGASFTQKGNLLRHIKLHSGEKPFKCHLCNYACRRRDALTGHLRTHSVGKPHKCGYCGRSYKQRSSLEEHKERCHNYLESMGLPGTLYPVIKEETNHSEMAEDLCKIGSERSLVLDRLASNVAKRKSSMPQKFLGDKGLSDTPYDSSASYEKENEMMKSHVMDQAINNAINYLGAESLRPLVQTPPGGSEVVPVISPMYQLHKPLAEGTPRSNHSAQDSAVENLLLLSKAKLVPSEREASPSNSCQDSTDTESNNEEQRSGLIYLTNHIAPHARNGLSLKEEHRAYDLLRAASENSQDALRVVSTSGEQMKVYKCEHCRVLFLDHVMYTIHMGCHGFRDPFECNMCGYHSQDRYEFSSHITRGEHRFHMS
UniProt Q9UKS7, whole entry: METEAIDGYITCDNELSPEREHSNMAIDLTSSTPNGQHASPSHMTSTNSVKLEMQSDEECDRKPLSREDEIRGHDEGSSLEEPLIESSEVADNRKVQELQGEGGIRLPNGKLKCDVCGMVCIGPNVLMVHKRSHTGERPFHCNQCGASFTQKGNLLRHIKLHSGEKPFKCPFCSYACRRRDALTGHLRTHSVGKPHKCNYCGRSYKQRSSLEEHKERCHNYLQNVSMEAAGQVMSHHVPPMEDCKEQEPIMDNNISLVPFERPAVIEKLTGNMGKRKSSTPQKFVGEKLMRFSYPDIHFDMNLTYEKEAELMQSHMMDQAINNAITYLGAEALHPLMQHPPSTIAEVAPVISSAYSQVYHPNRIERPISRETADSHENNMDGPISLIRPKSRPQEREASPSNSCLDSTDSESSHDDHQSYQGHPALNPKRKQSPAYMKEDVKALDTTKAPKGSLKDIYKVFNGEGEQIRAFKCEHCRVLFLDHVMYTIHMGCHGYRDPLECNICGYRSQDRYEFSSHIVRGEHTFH
UniProt Q9UKT9, whole entry: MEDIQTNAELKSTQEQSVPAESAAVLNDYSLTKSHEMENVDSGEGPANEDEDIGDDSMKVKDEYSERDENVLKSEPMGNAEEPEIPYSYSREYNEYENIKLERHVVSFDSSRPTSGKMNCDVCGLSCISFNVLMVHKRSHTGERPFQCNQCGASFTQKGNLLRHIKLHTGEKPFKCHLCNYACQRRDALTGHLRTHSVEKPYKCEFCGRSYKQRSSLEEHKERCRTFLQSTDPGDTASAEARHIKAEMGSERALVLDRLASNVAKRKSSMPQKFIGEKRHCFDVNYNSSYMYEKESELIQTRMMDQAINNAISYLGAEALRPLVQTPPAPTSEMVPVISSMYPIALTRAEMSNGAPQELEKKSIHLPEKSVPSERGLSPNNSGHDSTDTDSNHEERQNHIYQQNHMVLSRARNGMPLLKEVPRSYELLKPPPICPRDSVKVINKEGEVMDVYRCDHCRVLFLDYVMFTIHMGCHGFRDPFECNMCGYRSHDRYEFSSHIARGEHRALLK
UniProt P30291, whole entry: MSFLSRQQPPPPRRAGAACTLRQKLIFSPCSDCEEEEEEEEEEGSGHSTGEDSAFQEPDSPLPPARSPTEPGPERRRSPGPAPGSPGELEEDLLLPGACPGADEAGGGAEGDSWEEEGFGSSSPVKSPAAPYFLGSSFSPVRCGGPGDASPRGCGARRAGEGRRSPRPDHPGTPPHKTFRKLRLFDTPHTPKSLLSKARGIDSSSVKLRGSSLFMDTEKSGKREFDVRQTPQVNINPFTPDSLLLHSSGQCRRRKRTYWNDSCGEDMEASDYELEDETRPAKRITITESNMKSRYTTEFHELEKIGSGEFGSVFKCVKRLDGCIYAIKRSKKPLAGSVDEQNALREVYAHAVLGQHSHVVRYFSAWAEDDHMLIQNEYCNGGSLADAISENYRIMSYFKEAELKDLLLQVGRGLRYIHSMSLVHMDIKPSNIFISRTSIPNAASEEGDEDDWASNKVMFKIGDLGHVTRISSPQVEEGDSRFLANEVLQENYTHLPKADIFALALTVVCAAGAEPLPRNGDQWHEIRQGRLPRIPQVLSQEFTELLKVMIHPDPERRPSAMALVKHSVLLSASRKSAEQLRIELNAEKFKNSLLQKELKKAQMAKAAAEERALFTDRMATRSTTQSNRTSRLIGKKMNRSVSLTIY
UniProt Q16531, whole entry partner: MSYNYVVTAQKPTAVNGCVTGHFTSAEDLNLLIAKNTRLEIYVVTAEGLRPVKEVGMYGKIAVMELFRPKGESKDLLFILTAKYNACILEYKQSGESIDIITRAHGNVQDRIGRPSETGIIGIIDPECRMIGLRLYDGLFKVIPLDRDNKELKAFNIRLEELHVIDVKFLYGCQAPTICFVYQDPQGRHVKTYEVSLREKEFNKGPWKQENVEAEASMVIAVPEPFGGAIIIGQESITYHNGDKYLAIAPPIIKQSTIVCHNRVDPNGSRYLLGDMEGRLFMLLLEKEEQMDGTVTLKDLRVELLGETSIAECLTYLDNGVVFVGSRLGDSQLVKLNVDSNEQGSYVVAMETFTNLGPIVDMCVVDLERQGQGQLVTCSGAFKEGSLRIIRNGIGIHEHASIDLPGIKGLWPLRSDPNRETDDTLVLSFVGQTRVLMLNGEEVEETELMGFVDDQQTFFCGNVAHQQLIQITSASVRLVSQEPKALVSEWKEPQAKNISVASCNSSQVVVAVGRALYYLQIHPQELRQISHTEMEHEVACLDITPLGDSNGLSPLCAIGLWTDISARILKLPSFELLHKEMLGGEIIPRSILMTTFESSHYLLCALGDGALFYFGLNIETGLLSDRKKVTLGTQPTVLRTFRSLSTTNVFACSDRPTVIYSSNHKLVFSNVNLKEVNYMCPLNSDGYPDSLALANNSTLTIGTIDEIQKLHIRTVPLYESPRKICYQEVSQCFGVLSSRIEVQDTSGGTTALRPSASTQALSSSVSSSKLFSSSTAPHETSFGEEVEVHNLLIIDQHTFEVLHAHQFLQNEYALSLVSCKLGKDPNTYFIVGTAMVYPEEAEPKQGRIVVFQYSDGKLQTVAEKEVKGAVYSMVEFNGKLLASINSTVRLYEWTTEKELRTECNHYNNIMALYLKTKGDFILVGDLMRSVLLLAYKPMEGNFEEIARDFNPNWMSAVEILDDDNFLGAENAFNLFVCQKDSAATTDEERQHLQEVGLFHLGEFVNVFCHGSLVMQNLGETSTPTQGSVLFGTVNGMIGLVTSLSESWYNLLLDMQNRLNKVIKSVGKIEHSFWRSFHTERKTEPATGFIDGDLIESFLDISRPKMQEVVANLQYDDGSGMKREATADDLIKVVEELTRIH

Tests used:
[1] = system: Human diffuse large B-cell lymphoma cell (TMD8); assay: Tumor cell proliferation inhibition (cell viability assay); conditions: TMD8 cells, 96 hours
IL-2 = assay: Inflammatory cytokine release from PBMCs induced by PHA (flow cytometry CBA); conditions: PBMCs, PHA 1 µg/mL, 24 h
[2] = system: Human acute T lymphocytic leukemia cell (Molt4); assay: Tumor cell proliferation inhibition (cell viability assay); conditions: Molt4 cells, 96 hours
[3] = system: Human breast cancer cell (MCF-7); assay: as above; conditions: MCF-7 cells, 96 hours
[4] = system: Human colon cancer cell (SW620); assay: as above; conditions: SW620 cells, 96 hours
[5] = system: Human mantle cell lymphoma cell line (JEKO-1); assay: as above; conditions: JEKO-1 cells, 96 hours
[6] = system: Human multiple myeloma cell (MM.1S); assay: as above; conditions: MM.1S cells, 96 hours
[7] = system: Human myeloid monocytic leukemia cell (MV-4-11); assay: as above; conditions: MV-4-11 cells, 96 hours
CRBN = CRBN (Homo sapiens, UniProt Q96SW2); assay: CRBN binding affinity by HTRF (CEREBLON BINDING kit); conditions: CRBN binding, HTRF; for Inhibition Rate at 0.5 µM (%): compound at 0.5 µM; for Inhibition Rate at 2 µM (%): compound at 2 µM
CK1α = CK1α (Homo sapiens, UniProt P48729+Q96SW2); assay: Western blot assay of substrate protein degradation in hPBMCs; conditions: 24 hours treatment, compounds at 50 nM and 500 nM (concentration behind the class not stated)
GSPT1 = GSPT1 (Homo sapiens, UniProt P15170+Q96SW2); assay: as above; conditions: 24 hours treatment, compounds at 50 nM and 500 nM (concentration behind the class not stated)
IKZF1 = IKZF1 (Homo sapiens, UniProt Q13422+Q96SW2); assay: as above; conditions: 24 hours treatment, compounds at 50 nM and 500 nM (concentration behind the class not stated)
IKZF2 = IKZF2 (Homo sapiens, UniProt Q96SW2+Q9UKS7); assay: as above; conditions: 24 hours treatment, compounds at 50 nM and 500 nM (concentration behind the class not stated)
IKZF3 = IKZF3 (Homo sapiens, UniProt Q96SW2+Q9UKT9); assay: as above; conditions: 24 hours treatment, compounds at 50 nM and 500 nM (concentration behind the class not stated)
WEE1 = WEE1 (Homo sapiens, UniProt P30291+Q96SW2); assay: as above; conditions: 24 hours treatment, compounds at 50 nM and 500 nM (concentration behind the class not stated)

Compound | Inhibition Rate at 10 nM (%) [1] | Inhibition Rate at 500 nM (%) [1] | Inhibition Rate at 10 nM (%) [2] | Inhibition Rate at 500 nM (%) [2] | Inhibition Rate at 10 nM (%) [3] | Inhibition Rate at 500 nM (%) [3] | Inhibition Rate at 10 nM (%) [4] | Inhibition Rate at 500 nM (%) [4] | Inhibition Rate at 10 nM (%) [5] | Inhibition Rate at 500 nM (%) [5] | Inhibition Rate at 10 nM (%) [6] | Inhibition Rate at 500 nM (%) [6] | Inhibition Rate at 10 nM (%) [7] | Inhibition Rate at 500 nM (%) [7] | substrate protein remaining % (CK1a) (CK1α) | substrate protein remaining % (GSPT1) (GSPT1) | substrate protein remaining % (IKZF 1) (IKZF1) | substrate protein remaining % (IKZF2) (IKZF2) | substrate protein remaining % (IKZF3) (IKZF3) | substrate protein remaining % (WEE1) (WEE1) | further results
O=C1CCC(N2C(=O)c3ccc(CN4CCC(N5CCN(c6noc7cc(F)ccc67)CC5)CC4)cc3C2=O)C(=O)N1 (centres unmarked) | 1f9 (70% ≤ 1f9 < 80%) | 1f10 (80% ≤ 1f10 ≤ 100%) |  |  |  |  |  |  |  |  |  |  |  |  |  |  |  |  |  |  | Inhibition Rate (%) IL-2 (IL-2; 0.1 µM): IV9 (40% < IV9 ≤ 50%); Inhibition Rate (%) IL-2 (IL-2; 1 µM): IV8 (30% < IV8 ≤ 40%)
O=C1CCC(N2Cc3cc(CN4CCC(N5CC=C(c6cccc(Cl)c6Cl)CC5)C(F)(F)C4)c(F)cc3C2=O)C(=O)N1 (centres unmarked) | 1f3 (10% ≤ 1f3 < 20%) | 1f6 (40% ≤ 1f6 < 50%) | 1c12 (100% < 1c12 ≤ 105%) | 1c11 (80% ≤ 1c11 ≤ 100%) | 1e8 (50% ≤ 1e8 < 60%) | 1e10 (70% ≤ 1e10 < 80%) | 1d10 (80% ≤ 1d10 ≤ 100%) | 1d10 (80% ≤ 1d10 ≤ 100%) | 1g8 (60% ≤ 1g8 < 70%) | 1g9 (70% ≤ 1g9 < 80%) | 1b10 (80% ≤ 1b10 ≤ 100%) | 1b10 (80% ≤ 1b10 ≤ 100%) | 1a11 (100% ≤ 1a11 ≤ 105%) | 1a10 (80% ≤ 1a10 < 100%) | A (0% ≤ substrate protein remaining % ≤ 80%) | A (0% ≤ substrate protein remaining % ≤ 80%) | A (0% ≤ substrate protein remaining % ≤ 80%) | A (0% ≤ substrate protein remaining % ≤ 80%) | A (0% ≤ substrate protein remaining % ≤ 80%) | A (0% ≤ substrate protein remaining % ≤ 80%) | Inhibition Rate at 0.5 µM (%) (CRBN): a3 (30% < a3 ≤ 40%); Inhibition Rate at 2 µM (%) (CRBN): a5 (53% < a5 ≤ 60%)
O=C1CCC(N2Cc3c(C(=O)N4CCC(N5CCN(c6cccc(Cl)c6Cl)CC5)CC4)cccc3C2=O)C(=O)N1 (centres unmarked) | 1f7 (50% ≤ 1f7 < 60%) | 1f7 (50% ≤ 1f7 < 60%) |  |  | 1e5 (20% ≤ 1e5 < 30%) | 1e7 (40% ≤ 1e7 < 50%) |  |  |  |  | 1b4 (20% ≤ 1b4 < 32%) | 1b7 (50% ≤ 1b7 < 60%) | 1a5 (30% ≤ 1a5 ≤ 40%) | 1a8 (60% ≤ 1a8 < 70%) | A (0% ≤ substrate protein remaining % ≤ 80%) | A (0% ≤ substrate protein remaining % ≤ 80%) | B (80%< substrate protein remaining %≤ 100%) | A (0% ≤ substrate protein remaining % ≤ 80%) | A (0% ≤ substrate protein remaining % ≤ 80%) | B (80%< substrate protein remaining %≤ 100%) | Inhibition Rate at 0.5 µM (%) (CRBN): a3 (30% < a3 ≤ 40%); Inhibition Rate at 2 µM (%) (CRBN): a6 (60% < a6 ≤ 70%)
Nc1cccc2c1C(=O)N(C1CCC(=O)NC1=O)C2=O (centres unmarked) | 1f2 (5% ≤ 1f2 < 10%) | 1f4 (20% ≤ 1f4 < 30%) | 1c1 (-7% < 1c1 < 0) | 1c1 (-7% < 1c1 < 0) | 1e1 (-10% < 1e1 < 0) | 1e1 (-10% < 1e1 < 0) | 1d1 (0 < 1d1 < 5%) | 1d1 (0 < 1d1 < 5%) | 1g2 (5% ≤ 1g2 < 10%) | 1g4 (20% ≤ 1g4 < 30%) |  |  | 1a3 (10% ≤ 1a3 < 20%) | 1a5 (30% ≤ 1a5 ≤ 40%) |  |  |  |  |  |  | 
O=C1CCC(N2Cc3cc(CN4CCC(N5CCC(c6noc7cc(F)ccc67)CC5)C(F)(F)C4)c(F)cc3C2=O)C(=O)N1 (centres unmarked) | 1f4 (20% ≤ 1f4 < 30%) | 1f8 (60% ≤ 1f8 < 70%) | 1c11 (80% ≤ 1c11 ≤ 100%) | 1c11 (80% ≤ 1c11 ≤ 100%) | 1e8 (50% ≤ 1e8 < 60%) | 1e9 (60% ≤ 1e9 < 70%) | 1d10 (80% ≤ 1d10 ≤ 100%) | 1d10 (80% ≤ 1d10 ≤ 100%) | 1g8 (60% ≤ 1g8 < 70%) | 1g9 (70% ≤ 1g9 < 80%) | 1b10 (80% ≤ 1b10 ≤ 100%) | 1b10 (80% ≤ 1b10 ≤ 100%) | 1a10 (80% ≤ 1a10 < 100%) | 1a10 (80% ≤ 1a10 < 100%) | A (0% ≤ substrate protein remaining % ≤ 80%) | A (0% ≤ substrate protein remaining % ≤ 80%) | A (0% ≤ substrate protein remaining % ≤ 80%) | A (0% ≤ substrate protein remaining % ≤ 80%) | A (0% ≤ substrate protein remaining % ≤ 80%) | A (0% ≤ substrate protein remaining % ≤ 80%) | 
O=C1CCC(N2Cc3c(C(=O)N4CCC(N5CCN(c6noc7cc(F)ccc67)CC5)CC4)cccc3C2=O)C(=O)N1 (centres unmarked) | 1f6 (40% ≤ 1f6 < 50%) | 1f8 (60% ≤ 1f8 < 70%) | 1c6 (30% ≤ 1c6 < 40%) | 1c7 (40% ≤ 1c7 < 50%) |  |  |  |  |  |  |  |  | 1a5 (30% ≤ 1a5 ≤ 40%) | 1a10 (80% ≤ 1a10 < 100%) | A (0% ≤ substrate protein remaining % ≤ 80%) | A (0% ≤ substrate protein remaining % ≤ 80%) | B (80%< substrate protein remaining %≤ 100%) | B (80%< substrate protein remaining %≤ 100%) | B (80%< substrate protein remaining %≤ 100%) | A (0% ≤ substrate protein remaining % ≤ 80%) | Inhibition Rate at 0.5 µM (%) (CRBN): a3 (30% < a3 ≤ 40%); Inhibition Rate at 2 µM (%) (CRBN): a6 (60% < a6 ≤ 70%)
O=C1CCC(N2Cc3cc(CN4CCC(N5CCN(c6cccc(Cl)c6Cl)CC5)C(F)(F)C4)c(F)cc3C2=O)C(=O)N1 (centres unmarked) | 1f4 (20% ≤ 1f4 < 30%) | 1f10 (80% ≤ 1f10 ≤ 100%) | 1c11 (80% ≤ 1c11 ≤ 100%) | 1c11 (80% ≤ 1c11 ≤ 100%) | 1e9 (60% ≤ 1e9 < 70%) | 1e11 (80% ≤ 1e11 ≤ 100%) | 1d9 (70% ≤ 1d9 < 80%) | 1d10 (80% ≤ 1d10 ≤ 100%) | 1g8 (60% ≤ 1g8 < 70%) | 1g10 (80% ≤ 1g10 ≤ 100%) | 1b10 (80% ≤ 1b10 ≤ 100%) | 1b10 (80% ≤ 1b10 ≤ 100%) | 1a10 (80% ≤ 1a10 < 100%) | 1a10 (80% ≤ 1a10 < 100%) | A (0% ≤ substrate protein remaining % ≤ 80%) | A (0% ≤ substrate protein remaining % ≤ 80%) | A (0% ≤ substrate protein remaining % ≤ 80%) | A (0% ≤ substrate protein remaining % ≤ 80%) | A (0% ≤ substrate protein remaining % ≤ 80%) | A (0% ≤ substrate protein remaining % ≤ 80%) | 
O=C1CCC(N2Cc3c(C(=O)N4CCC(N5CCN(c6cccc(Cl)c6Cl)CC5)C(F)(F)C4)cccc3C2=O)C(=O)N1 (centres unmarked) | 1f4 (20% ≤ 1f4 < 30%) | 1f8 (60% ≤ 1f8 < 70%) |  |  |  |  |  |  | 1g5 (30% ≤ 1g5 < 40%) | 1g6 (40% ≤ 1g6 < 50%) | 1b3 (10% ≤ 1b3 < 20%) | 1b9 (70% ≤ 1b9 < 80%) |  |  | A (0% ≤ substrate protein remaining % ≤ 80%) | A (0% ≤ substrate protein remaining % ≤ 80%) | A (0% ≤ substrate protein remaining % ≤ 80%) | A (0% ≤ substrate protein remaining % ≤ 80%) | A (0% ≤ substrate protein remaining % ≤ 80%) | B (80%< substrate protein remaining %≤ 100%) | Inhibition Rate at 0.5 µM (%) (CRBN): a2 (20% < a2 ≤ 30%); Inhibition Rate at 2 µM (%) (CRBN): a5 (53% < a5 ≤ 60%)
